PubChem BioAssay (NCI)
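Growth conditions: 96-well plates. Treatment: test compound, 48 hours, 5 concentrations. Analysis: linear interpolation between bracketing concentrations; unreached endpoints set to highest concentration. The concentration for 50% growth inhibition is given as GI50. TGI marks complete inhibition of growth.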

What was measured:
Assay in all cases: DTP human tumour cell line panel, 48 h; in the data active = GI50 below about 0.43 µM; inactive = the rest
[1] = test system: PC-3 prostate
[2] = test system: SNB-75 CNS
[3] = test system: KM12 colon
[4] = test system: NCI-H23 lung
[5] = test system: HCC-2998 colon
[6] = test system: DU-145 prostate
[7] = test system: SW-620 colon
[8] = test system: SK-MEL-5 melanoma
[9] = test system: NCI/ADR-RES ovarian
[10] = test system: SNB-19 CNS
[11] = test system: NCI-H522 lung
[12] = test system: BT-549 breast
[13] = test system: HOP-62 NSCLC
[14] = test system: K-562 leukemia
[15] = test system: HCT-15 colon
[16] = test system: TK-10 renal
[17] = test system: MDA-N
[18] = test system: CCRF-CEM leukemia
[19] = test system: SK-MEL-28 melanoma
[20] = test system: SF-295 CNS
[21] = test system: CAKI-1 renal
[22] = test system: NCI-H322M lung
[23] = test system: MDA-MB-231 breast
[24] = test system: SR leukemia
[25] = test system: HT29 colon
[26] = test system: HS 578T breast
[27] = test system: OVCAR-8 ovarian
[28] = test system: 786-0 renal
[29] = test system: UACC-62 melanoma
[30] = test system: IGROV1 ovarian
[31] = test system: SF-268 CNS
[32] = test system: HL-60(TB) leukemia
[33] = test system: SF-539 CNS
[34] = test system: T-47D breast
[35] = test system: M14 melanoma
[36] = test system: COLO 205 colon
[37] = test system: NCI-H460 lung
[38] = test system: HCT-116 colon
[39] = test system: U251 CNS
[40] = test system: UO-31 renal
[41] = test system: SN12C renal
[42] = test system: OVCAR-5 ovarian
[43] = test system: LOX IMVI melanoma
[44] = test system: ACHN renal
[45] = test system: SK-MEL-2 melanoma
[46] = test system: OVCAR-3 ovarian
[47] = test system: A549 NSCLC
[48] = test system: MALME-3M melanoma
[49] = test system: MOLT-4 leukemia
[50] = test system: RXF 393 renal
[51] = test system: MCF7 breast
[52] = test system: UACC-257 melanoma
[53] = test system: SK-OV-3 ovarian
[54] = test system: EKVX NSCLC
[55] = test system: OVCAR-4 ovarian
[56] = test system: MDA-MB-435

CP1(=O)N(Cc2ccccc2)[C@@H]2CCCC[C@H]2N1Cc1ccccc1
57.4 µM: TGI [11]
84.4 µM: TGI [27]
51.7 µM: TGI [32]
> 100 µM: TGI [1] | TGI [3] | TGI [4] | TGI [6] | TGI [7] | TGI [9] | TGI [10] | TGI [12] | TGI [13] | TGI [14] | TGI [15] | TGI [16] | TGI [17] | TGI [18] | TGI [19] | TGI [20] | TGI [21] | TGI [22] | TGI [23] | TGI [25] | TGI [26] | TGI [28] | TGI [29] | TGI [31] | TGI [37] | TGI [38] | TGI [39] | TGI [40] | TGI [41] | TGI [42] | TGI [43] | TGI [44] | TGI [45] | TGI [46] | TGI [47] | TGI [48] | TGI [50] | TGI [51] | TGI [53] | TGI [54] | TGI [56]
99.6 µM: TGI [52]
60.6 µM: TGI [5]
78.5 µM: TGI [35]
57.8 µM: TGI [24]
35.7 µM: TGI [36]
89 µM: TGI [30]
62.5 µM: TGI [49]
64.1 µM: TGI [34]
98.4 µM: TGI [55]
66.1 µM: TGI [2]
45 µM: TGI [8]
84.1 µM: TGI [33]
inactive: GI50 [1] 32.4 µM | GI50 [2] 15.9 µM | GI50 [3] 31 µM | GI50 [4] 34.2 µM | GI50 [5] 22.3 µM | GI50 [6] 44.3 µM | GI50 [7] 41.3 µM | GI50 [8] 20.3 µM | GI50 [9] 30 µM | GI50 [10] 64.1 µM | GI50 [11] 20.2 µM | GI50 [12] 57.6 µM | GI50 [13] 98.3 µM | GI50 [14] 37.4 µM | GI50 [15] 37.5 µM | GI50 [16] 38.2 µM | GI50 [17] 37.8 µM | GI50 [18] 40.7 µM | GI50 [19] > 100 µM | GI50 [20] 38.2 µM | GI50 [21] 43.9 µM | GI50 [22] 70.3 µM | GI50 [23] 28.8 µM | GI50 [24] 24.1 µM | GI50 [25] 25.4 µM | GI50 [26] 32 µM | GI50 [27] 28.4 µM | GI50 [28] 44.4 µM | GI50 [29] 45.6 µM | GI50 [30] 27.2 µM | GI50 [31] 40.6 µM | GI50 [32] 23.4 µM | GI50 [33] 23.7 µM | GI50 [34] 20.4 µM | GI50 [35] 24 µM | GI50 [36] 15.5 µM | GI50 [37] 49.9 µM | GI50 [38] 26.3 µM | GI50 [39] 39 µM | GI50 [40] 23.1 µM | GI50 [41] 31 µM | GI50 [42] > 100 µM | GI50 [43] 33.9 µM | GI50 [44] 55.9 µM | GI50 [45] 77.1 µM | GI50 [46] 31.9 µM | GI50 [47] 40.2 µM | GI50 [48] 32.8 µM | GI50 [49] 22.5 µM | GI50 [50] 25.9 µM | GI50 [51] 39.7 µM | GI50 [52] 29.7 µM | GI50 [53] 40.6 µM | GI50 [54] 42.7 µM | GI50 [55] 23.8 µM | GI50 [56] 30.6 µM
